Screening data: PubChem BioAssay, Broad Institute
Hits are enriched below; roughly 1.3% of the tested compounds scored in any of these assays.
INS-1E GSIS act – primary screen for activators of insulin secretion dependent on glucose, INS-1E cells, GLuc reporter luminescence; INS-1E GLuc reporter insulin secretion, 2-3 h; activation, % at 16.6 µM; 370,000 compounds, 0.61% hits;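 active = lowest replicate activation of at least 40%, so every replicate reaches that level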;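 note: 0% = median of neutral control wells and 100% = median of IBMX positive control wells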
Yeast UUG start-1 – modulators of start codon recognition fidelity in yeast; AID 602363; hit rate 0.13% among 350,000; activity score, % at 18.7 µM; S. cerevisiae UUG-firefly luciferase reporter, luminescence/redox ratio;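 active = replicate mean at a twofold rise or more, about +100% in these data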;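 note: firefly luciferase made from a UUG start codon reports start codon fidelity; reporter light over untreated wells divided by growth signal over untreated wells; some hits fall short of that in this replicate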
SR-BI HDL uptake – inhibitors of mouse SR-BI mediated HDL lipid uptake. Q61009. ldlA[mSR-BI] CHO cells, DiI-HDL uptake fluorescence, 3 h. inhibition, % at 12.5 µM. 320,000 compounds, 0.96% hits;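 active = mean replicate inhibition of at least 70% and a set share of replicates each scoring 70 or more; inconclusive = meets just one of the two criteria; inactive = fails both criteria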;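 note: 0% = median of neutral control wells and 100% = median of positive control wells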
SR-BI DiI-HDL act – activators of SR-BI mediated HDL lipid uptake. 320,000 compounds, 0.096% hits. CHO ldlA[mSR-BI] cells, DiI-HDL uptake fluorescence, 3 h; 100 = double the neutral-control signal. activation, % at 12.5 µM;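 active = mean replicate activation of at least 60% and every replicate at or above 60%; inconclusive = mean or all-replicate condition met, but not both; inactive = mean below 60% and not all replicates reaching 60%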;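 note: 0% = median plate neutral-control signal and 100% = twice that signal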
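Material: SR-BI-overexpressing, LDLR-lacking CHO cells; schedule: compound exposure 3 h, 37 °C; reagent: DiI-labelled HDL at 10 µg/mL final; technique: bottom-read fluorescence, 550/595 nm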
DiI quencher – counter-screen for SR-BI lipid transfer inhibitors: DiI fluorescence quenchers; AID 540326; shares compounds with SR-BI HDL uptake; cell-free DiI-HDL fluorescence quenching, 30 min; AC50, µM (series often up to 35 µM), inactives show at the highest dose activity change, negative = quenching; 470 compounds, 20% hits;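 active = quenching, a falling signal, with AC50 below a set limit tied to the top valid dose, actives reach about 32 µM in these data; inconclusive = no clear call, values can overlap the other calls; inactive = rising signal, and the rest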
Yeast UUG start-2 – alters UUG start codon use in yeast; 540 tested, under 10 active; S. cerevisiae UUG-start firefly luciferase, luminescence, 4 h; 100% means double the DMSO signal; activation, % at 38 µM; shares compounds with Yeast UUG start-1;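 active = signal increase whose fitted curve reaches an absolute level of 40 at a concentration under 10 µM; inactive = activity opposite to the expected increase, or the rest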
An asterisk follows results filed as active; ? = inconclusive; nt = not tested or not shown.

SMILES	INS-1E GSIS act	Yeast UUG start-1	SR-BI HDL uptake	SR-BI DiI-HDL act	DiI quencher	others
COc1ccc(NC(=O)CN2CCN(CC(=O)Nc3cc(OC)cc(OC)c3)CC2)cc1	nt	7.7	40.4	-40.4	nt
CCOc1ccc(NC(=O)CN2CCN(CC(=O)Nc3ccc(N(C)C)cc3)CC2)cc1	2.6	-3.9	86.1*	-86.1	-12.7%
COc1ccc(CC(=O)Nc2ccc(-c3noc(-c4ccccc4OC)n3)cc2)cc1	nt	-10.4	56.9	-56.9	nt
COc1ccc(CCC(=O)Nc2ccc(-c3noc(-c4ccc(OC)c(OC)c4)n3)cc2)cc1	-0.4	-11.8	101.0*	-101.0	-4.8%
O=C(C[C@H]1CC[C@@H]2[C@H](COC[C@@H](O)CN2C(=O)c2cnccn2)O1)NCc1ccc(F)cc1	13.0	-13.0	nt	nt	nt
CC(=O)Nc1c(I)c(C(=O)N[C@H]2C(O)O[C@H](CO)[C@@H](O)[C@@H]2O)c(I)c(N(C)C(C)=O)c1I (stereo partly specified)	nt	-9.4	-1.2	1.2	-1.1%
COC(=O)C1C(=O)c2c([nH]c(C(=O)OC3CCCCC3)c2C)CC1C (stereo unspecified)	7.2	-7.3	-4.7	4.7	nt
COC(=O)C1C(=O)c2c([nH]c(C(=O)OC3CCCC3C)c2C)CC1C (stereo unspecified)	-25.0	-14.5	36.7	-36.7	-0.8%
COc1cc(NC(=O)c2ccco2)c(OC)cc1NC(=O)Nc1ccc(Cl)cc1	nt	-7.6	100.0*	-100.0	5.08µM*
O=C(Nc1ccccc1)N1CC(=O)N2[C@H](CO)[C@H](c3ccc(C#CC4CCCC4)cc3)[C@@H]2C1	-13.7	nt	nt	nt	nt
CCOC(=O)C1=C(CNCCOc2ccc(OC)cc2)NC(=O)NC1c1ccc2c(c1)OCO2 (stereo unspecified)	3.6	nt	?	-71.9	-3.9%
COc1ccc(-c2nnc(SCC(=O)Nc3ncc(C(F)(F)F)cc3Cl)n2CC(C)C)cc1	-10.3	-12.0	25.0	-25.0	-5.6%
Cc1ccc2c(c1)C(=O)C(=O)N2CC(=O)Nc1ccc(N2CCOCC2)cc1	-6.3	-14.5	3.9	-3.9	-10.6%
CC1Cc2ccccc2N1CC(=O)Nc1ccc(N2CCOCC2)cc1 (stereo unspecified)	-10.5	-10.7	83.1*	-83.1	-18.9%
COc1ccccc1-c1ccc([C@H]2[C@@H](CO)N3CCCCN(C(=O)NC4CCCC4)C[C@H]23)cc1	-27.5	6.1	nt	nt	nt
CN(C)CC(=O)N[C@@H]1CC[C@@H](CCNC(=O)Nc2ccc(F)cc2)O[C@@H]1CO	-9.6	14.2	nt	nt	nt
Cc1nn(-c2ccc(N3CCCCC3)nn2)c(C)c1CCC(=O)Nc1ccc(F)c(F)c1	-23.7	-17.9	49.4	-49.4	nt
Cc1cc(C)cc(NC(=O)CCc2c(C)nn(-c3ccc(N4CCCCC4)nn3)c2C)c1	-24.1	-15.4	79.5*	-79.5	-2.6%
CCOC(=O)N1CCN(C(=O)Cn2nc(C)n3nc(-c4ccc(OC)cc4)cc3c2=O)CC1	23.9	1.5	33.9	-33.9	nt
CCOC(=O)C1CCN(C(=O)Cn2nc(C)n3nc(-c4ccc(OC)cc4)cc3c2=O)CC1	-1.0	-7.6	60.8	-60.8	-0.7%

Molecules from the list above that contain fluorine, in the order listed:
SMILES	INS-1E GSIS act	Yeast UUG start-1	SR-BI HDL uptake	SR-BI DiI-HDL act	DiI quencher	others
O=C(C[C@H]1CC[C@@H]2[C@H](COC[C@@H](O)CN2C(=O)c2cnccn2)O1)NCc1ccc(F)cc1	13.0	-13.0	nt	nt	nt
COc1ccc(-c2nnc(SCC(=O)Nc3ncc(C(F)(F)F)cc3Cl)n2CC(C)C)cc1	-10.3	-12.0	25.0	-25.0	-5.6%
CN(C)CC(=O)N[C@@H]1CC[C@@H](CCNC(=O)Nc2ccc(F)cc2)O[C@@H]1CO	-9.6	14.2	nt	nt	nt
Cc1nn(-c2ccc(N3CCCCC3)nn2)c(C)c1CCC(=O)Nc1ccc(F)c(F)c1	-23.7	-17.9	49.4	-49.4	nt

Later entries.
SMILES	INS-1E GSIS act	Yeast UUG start-1	SR-BI HDL uptake	SR-BI DiI-HDL act	DiI quencher	others
O=C(NCC[C@H]1CC[C@H](NC(=O)C2CCCCC2)[C@@H](CO)O1)c1cnccn1	4.6	5.2	nt	nt	nt
COc1ccccc1-n1cnc2cc(NCc3ccco3)ccc21	nt	-9.1	75.8*	-75.8	-18.6%
COc1ccccc1-n1cnc2cc(NCc3ccccc3O)ccc21	-7.6	-14.4	10.2	-10.2	nt
CC(CCc1ccccc1)NC(=O)C1CCN(C(=O)c2sccc2-n2cccc2)CC1 (stereo unspecified)	nt	-2.3	87.7*	-87.7	-3.2%
O=C(c1cn(-c2ccccc2)nc1-c1cccc([N+](=O)[O-])c1)N1CCCCC1	8.9	17.9	72.5*	-72.5	-19.4%
CN(C)C(=O)c1cn(-c2ccccc2)nc1-c1cccc([N+](=O)[O-])c1	-1.3	-6.0	65.4	-65.4	nt
O=C(NNc1c(F)c(F)cc(F)c1F)C1CCN(S(=O)(=O)c2ccccc2F)CC1	-19.0	-22.1	79.1*	-79.1	-0.8%
C=C(CN(C)C)C(=O)c1ccc(OC2OC(COC(C)=O)C(OC(C)=O)C(OC(C)=O)C2OC(C)=O)cc1 (stereo unspecified)	nt	nt	93.5*	-93.5	-0.8%
CC(C)NC(=O)Nc1ccc2c(c1)C(=O)N([C@@H](C)CO)C[C@@H](C)[C@@H](CN(C)C(=O)Cc1ccccc1)OCCCC[C@H](C)O2	29.2	nt	nt	nt	nt
C[C@@H]1CN([C@@H](C)CO)C(=O)Cc2cc(NC(=O)Cc3cn(C)c4ccccc34)ccc2O[C@H]1CN(C)Cc1ccc(-c2ccccc2)cc1	-32.1	nt	nt	nt	nt
Cc1ccc(NC(=O)CSc2nnc([C@H](C)NC(=O)OC(C)(C)C)o2)c(C)c1	-0.4	214.5*	73.0*	-73.0	0.2%	Yeast UUG start-2=2.9
CC(C)NC(=O)N(C)C[C@@H]1Oc2c(NC(=O)C3CCCCC3)cccc2C(=O)N([C@H](C)CO)C[C@H]1C	4.5	-1.1	nt	nt	nt
Cc1nc(N2CCN(S(=O)(=O)c3ccccc3C#N)CC2)c2c(-c3ccccc3)csc2n1	-13.5	141.0*	14.2	-14.2	nt	Yeast UUG start-2=-1.6
COCC(=O)Nc1ccc2c(c1)[C@@H]1C[C@@H](CC(=O)NCc3ccccc3F)O[C@@H](CO)[C@@H]1O2	10.9	nt	nt	nt	nt
C[C@H](CO)N1C[C@H](C)[C@@H](CN(C)CC2CC2)Oc2c(NC(=O)C3CCOCC3)cccc2C1=O	7.8	-17.2	nt	nt	nt
N#C/C(=C\Nc1ccc2c(c1)OCCO2)C(=O)NCc1ccco1	18.5	102.2*	21.7	-21.7	nt	Yeast UUG start-2=-3.7
C=C(C)C(=O)Nc1ccc(OC(F)(F)C(F)F)c(NC(=O)C(=C)C)c1	nt	635.5*	32.9	-32.9	nt	Yeast UUG start-2=-5.6
C#CCOCCOCCOCCNc1nc(N2CCN(C(=O)[C@H](CCC(=O)O)n3cc(C(N)Cc4ccc(O)cc4)nn3)CC2)nc(N2CCN(C(=O)[C@H](CCC(=O)O)n3cc(C(N)[C@H](C)CC)nn3)CC2)n1 (stereo partly specified)	nt	112.2*	-8.7	8.7	nt	Yeast UUG start-2=10.1
C#CCOCCOCCOCCNc1nc(N2CCN(C(=O)[C@H](CCCN=C(N)N)n3cc(C(N)[C@H](C)CC)nn3)CC2)nc(N2CCN(C(=O)[C@H](CC(N)=O)n3cc(C(N)[C@@H](C)CC)nn3)CC2)n1 (stereo partly specified)	0.9	121.3*	-11.4	11.4	nt	Yeast UUG start-2=-3.1
C#CCOCCOCCOCCNc1nc(N2CCN(C(=O)[C@H]([C@@H](C)CC)n3cc([C@@H](N)Cc4ccc(O)cc4)nn3)CC2)nc(N2CCN(C(=O)[C@H](Cc3ccc(O)cc3)n3cc([C@@H](N)C(C)CC)nn3)CC2)n1 (stereo partly specified)	11.9	8.7	7.4	-7.4	nt
